Earlier results as cited in patent US9399044B2, “Antimicrobial cationic polyamines” (International Business Machines Corporation, priority 2014, dated 2016).

Test system: mouse
Conditions: commercially available compounds, source NIH

COc1cccc2c1C(=O)c1c(O)c3c(c(O)c1C2=O)C[C@@](O)(C(=O)CO)C[C@@H]3O[C@H]1C[C@H](N)[C@H](O)[C@H](C)O1 [Doxorubicin]
Mouse Intravenous LD50: 10 mg/kg
